# Membrane permeability of cyclic peptides

Values of Kelly et al. 2021, doi:10.1021/jacs.0c06115, as listed in CycPeptMPDB.

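Conditions beyond the assay type are not listed; see the original paper. The list need not hold all peptides of the study. Peptides that the database sets to -10, its floor, are left out.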

PAMPA is the parallel artificial membrane permeability assay, which has no cells and reads passive diffusion.
Permeability is in 10^-6 cm/s, converted from the database's log10 values; higher is more permeable.

SMILES,PAMPA (10^-6 cm/s)
CC(=O)N1CCC[C@H]1C(=O)N[C@@H]1C(=O)N(C)[C@H](CC(C)C)C(=O)N[C@H](CC(C)C)C(=O)N[C@H](CC(C)C)C(=O)N[C@@H](CC(C)C)C(=O)N(C)[C@H](C)C(=O)N[C@@H](CC(C)C)C(=O)N2CCC[C@@H]2C(=O)O[C@@H]1C,0.32
CC(=O)N1CCC[C@H]1C(=O)N(C)[C@H](CC(C)C)C(=O)N[C@@H]1C(=O)N(C)[C@@H](CC(C)C)C(=O)N(C)[C@@H](CC(C)C)C(=O)N[C@@H](CC(C)C)C(=O)N(C)[C@@H](C)C(=O)N[C@H](CC(C)C)C(=O)N2CCC[C@@H]2C(=O)O[C@@H]1C,6.6
CC(=O)N1CCC[C@H]1C(=O)N(C)[C@H](CC(C)C)C(=O)N[C@@H]1C(=O)N[C@@H](CC(C)C)C(=O)N[C@@H](CC(C)C)C(=O)N[C@@H](CC(C)C)C(=O)N(C)[C@@H](C)C(=O)N[C@H](CC(C)C)C(=O)N2CCC[C@H]2C(=O)O[C@@H]1C,0.62
CC(=O)N1CCC[C@H]1C(=O)N(C)[C@@H](CC(C)C)C(=O)N[C@@H]1C(=O)N[C@@H](CC(C)C)C(=O)N[C@@H](CC(C)C)C(=O)N[C@@H](CC(C)C)C(=O)N[C@@H](C)C(=O)N[C@H](CC(C)C)C(=O)N2CCC[C@@H]2C(=O)O[C@@H]1C,0.001
CC(=O)N1CCC[C@@H]1C(=O)N(C)[C@H](CC(C)C)C(=O)N[C@@H]1C(=O)N(C)[C@@H](CC(C)C)C(=O)N(C)[C@@H](CC(C)C)C(=O)N[C@H](CC(C)C)C(=O)N[C@H](C)C(=O)N[C@H](CC(C)C)C(=O)N2CCC[C@@H]2C(=O)O[C@@H]1C,1.5
CC(=O)N1CCC[C@H]1C(=O)N(C)[C@H](CC(C)C)C(=O)N[C@@H]1C(=O)N(C)[C@H](CC(C)C)C(=O)N(C)[C@@H](CC(C)C)C(=O)N[C@@H](CC(C)C)C(=O)N(C)[C@H](C)C(=O)N[C@H](CC(C)C)C(=O)N2CCC[C@@H]2C(=O)O[C@@H]1C,1.5
CC(=O)N1CCC[C@@H]1C(=O)N(C)[C@H](CC(C)C)C(=O)N[C@@H]1C(=O)N[C@H](CC(C)C)C(=O)N[C@H](CC(C)C)C(=O)N[C@@H](CC(C)C)C(=O)N[C@@H](C)C(=O)N[C@H](CC(C)C)C(=O)N2CCC[C@H]2C(=O)O[C@@H]1C,0.22
CC(=O)N1CCC[C@H]1C(=O)N(C)[C@H](CC(C)C)C(=O)N[C@@H]1C(=O)N(C)[C@H](CC(C)C)C(=O)N(C)[C@@H](CC(C)C)C(=O)N(C)[C@H](CC(C)C)C(=O)N(C)[C@@H](C)C(=O)N[C@H](CC(C)C)C(=O)N2CCC[C@H]2C(=O)O[C@@H]1C,4.8
CC(=O)N1CCC[C@H]1C(=O)N(C)[C@@H](CC(C)C)C(=O)N[C@@H]1C(=O)N(C)[C@@H](CC(C)C)C(=O)N[C@@H](CC(C)C)C(=O)N[C@H](CC(C)C)C(=O)N[C@@H](C)C(=O)N[C@@H](CC(C)C)C(=O)N2CCC[C@H]2C(=O)O[C@@H]1C,1.7
CC(=O)N1CCC[C@H]1C(=O)N(C)[C@@H](CC(C)C)C(=O)N[C@@H]1C(=O)N[C@@H](CC(C)C)C(=O)N(C)[C@H](CC(C)C)C(=O)N(C)[C@@H](CC(C)C)C(=O)N(C)[C@H](C)C(=O)N[C@@H](CC(C)C)C(=O)N2CCC[C@@H]2C(=O)O[C@@H]1C,1.9
CC(=O)N1CCC[C@@H]1C(=O)N(C)[C@H](CC(C)C)C(=O)N[C@@H]1C(=O)N(C)[C@@H](CC(C)C)C(=O)N[C@H](CC(C)C)C(=O)N(C)[C@H](CC(C)C)C(=O)N[C@@H](C)C(=O)N[C@@H](CC(C)C)C(=O)N2CCC[C@@H]2C(=O)O[C@@H]1C,0.28
CC(=O)N1CCC[C@H]1C(=O)N[C@@H]1C(=O)N(C)[C@H](CC(C)C)C(=O)N(C)[C@H](CC(C)C)C(=O)N(C)[C@@H](CC(C)C)C(=O)N(C)[C@@H](CC(C)C)C(=O)N(C)[C@H](C)C(=O)N[C@@H](CC(C)C)C(=O)N2CCC[C@@H]2C(=O)O[C@@H]1C,8.3
CC(=O)N1CCC[C@@H]1C(=O)N(C)[C@@H](CC(C)C)C(=O)N[C@@H]1C(=O)N(C)[C@H](CC(C)C)C(=O)N[C@@H](CC(C)C)C(=O)N(C)[C@@H](CC(C)C)C(=O)N(C)[C@@H](C)C(=O)N[C@H](CC(C)C)C(=O)N2CCC[C@@H]2C(=O)O[C@@H]1C,2.2
CC(=O)N1CCC[C@H]1C(=O)N[C@@H]1C(=O)N[C@H](CC(C)C)C(=O)N(C)[C@H](CC(C)C)C(=O)N[C@H](CC(C)C)C(=O)N(C)[C@H](CC(C)C)C(=O)N[C@H](C)C(=O)N[C@@H](CC(C)C)C(=O)N2CCC[C@@H]2C(=O)O[C@@H]1C,2.1
CC(=O)N1CCC[C@H]1C(=O)N(C)[C@H](CC(C)C)C(=O)N[C@@H]1C(=O)N[C@@H](CC(C)C)C(=O)N[C@H](CC(C)C)C(=O)N[C@H](CC(C)C)C(=O)N[C@@H](C)C(=O)N[C@@H](CC(C)C)C(=O)N2CCC[C@@H]2C(=O)O[C@@H]1C,0.32
CC(=O)N1CCC[C@H]1C(=O)N(C)[C@@H](CC(C)C)C(=O)N[C@@H]1C(=O)N[C@H](CC(C)C)C(=O)N(C)[C@H](CC(C)C)C(=O)N[C@H](CC(C)C)C(=O)N(C)[C@@H](C)C(=O)N[C@@H](CC(C)C)C(=O)N2CCC[C@@H]2C(=O)O[C@@H]1C,6
CC(=O)N1CCC[C@@H]1C(=O)N(C)[C@@H](CC(C)C)C(=O)N[C@@H]1C(=O)N[C@@H](CC(C)C)C(=O)N[C@@H](CC(C)C)C(=O)N(C)[C@@H](CC(C)C)C(=O)N(C)[C@@H](C)C(=O)N[C@H](CC(C)C)C(=O)N2CCC[C@@H]2C(=O)O[C@@H]1C,1.9
CC(=O)N1CCC[C@H]1C(=O)N(C)[C@@H](CC(C)C)C(=O)N[C@@H]1C(=O)N[C@@H](CC(C)C)C(=O)N[C@@H](CC(C)C)C(=O)N[C@@H](CC(C)C)C(=O)N[C@@H](C)C(=O)N[C@H](CC(C)C)C(=O)N2CCC[C@H]2C(=O)O[C@@H]1C,0.26
CC(=O)N1CCC[C@@H]1C(=O)N(C)[C@H](CC(C)C)C(=O)N[C@@H]1C(=O)N[C@@H](CC(C)C)C(=O)N(C)[C@@H](CC(C)C)C(=O)N[C@@H](CC(C)C)C(=O)N(C)[C@@H](C)C(=O)N[C@@H](CC(C)C)C(=O)N2CCC[C@@H]2C(=O)O[C@@H]1C,3.5
CC(=O)N1CCC[C@H]1C(=O)N(C)[C@H](CC(C)C)C(=O)N[C@@H]1C(=O)N[C@@H](CC(C)C)C(=O)N(C)[C@@H](CC(C)C)C(=O)N[C@H](CC(C)C)C(=O)N(C)[C@@H](C)C(=O)N[C@@H](CC(C)C)C(=O)N2CCC[C@@H]2C(=O)O[C@@H]1C,0.32

The 3 highest values of PAMPA among the entries above:

SMILES,PAMPA (10^-6 cm/s)
CC(=O)N1CCC[C@H]1C(=O)N[C@@H]1C(=O)N(C)[C@H](CC(C)C)C(=O)N(C)[C@H](CC(C)C)C(=O)N(C)[C@@H](CC(C)C)C(=O)N(C)[C@@H](CC(C)C)C(=O)N(C)[C@H](C)C(=O)N[C@@H](CC(C)C)C(=O)N2CCC[C@@H]2C(=O)O[C@@H]1C,8.3
CC(=O)N1CCC[C@H]1C(=O)N(C)[C@H](CC(C)C)C(=O)N[C@@H]1C(=O)N(C)[C@@H](CC(C)C)C(=O)N(C)[C@@H](CC(C)C)C(=O)N[C@@H](CC(C)C)C(=O)N(C)[C@@H](C)C(=O)N[C@H](CC(C)C)C(=O)N2CCC[C@@H]2C(=O)O[C@@H]1C,6.6
CC(=O)N1CCC[C@H]1C(=O)N(C)[C@@H](CC(C)C)C(=O)N[C@@H]1C(=O)N[C@H](CC(C)C)C(=O)N(C)[C@H](CC(C)C)C(=O)N[C@H](CC(C)C)C(=O)N(C)[C@@H](C)C(=O)N[C@@H](CC(C)C)C(=O)N2CCC[C@@H]2C(=O)O[C@@H]1C,6